For 18 compounds, IC50 results are on record in patent US11498904B2, “Substituted biaryl compounds as indoleamine 2,3-dioxygenase (IDO) inhibitors” (MERCK SHARP & DOHME CORP., priority 2017, dated 2022).

Chains of the proteins cited; added tags and fusions are not shown.
UniProt P14902, whole entry: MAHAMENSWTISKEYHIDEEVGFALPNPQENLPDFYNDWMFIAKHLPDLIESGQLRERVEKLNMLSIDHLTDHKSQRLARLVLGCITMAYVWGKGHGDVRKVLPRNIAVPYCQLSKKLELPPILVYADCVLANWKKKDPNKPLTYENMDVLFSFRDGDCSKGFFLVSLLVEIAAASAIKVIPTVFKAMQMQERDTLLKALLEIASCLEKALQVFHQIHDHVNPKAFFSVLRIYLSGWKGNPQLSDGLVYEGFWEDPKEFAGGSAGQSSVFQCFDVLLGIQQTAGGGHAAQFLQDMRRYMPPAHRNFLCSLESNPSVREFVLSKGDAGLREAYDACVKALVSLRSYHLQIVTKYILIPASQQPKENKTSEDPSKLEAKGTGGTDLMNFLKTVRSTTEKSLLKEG

Usually IC50 stands for the concentration that gives 50% inhibition.

Structures can show the parent of a compound that is named as a salt.

The assay deals with IDO1 (Homo sapiens, UniProt P14902). Briefly: IDO1 Cellular Assay in HeLa Cells Stimulated with IFNγ. Format: cell-based. Particulars: HeLa cells stimulated with IFNγ 100 ng/mL, 300 uM L-tryptophan, about 48 hours, fluorescence readout; read-out: HeLa Cell Potency, IC50.
In the case of `COc1cc(C)c(-c2ccc(C3(NC(=O)c4ccc(C#N)cc4)CCC3)cc2)c(C)n1` [Example 36, 4-cyano-N-(1-(4-(6-methoxy-2,4-dimethylpyridin-3-yl)phenyl)cyclobutyl)benzamide], the IC50 is 1.9 nM.
With `N#Cc1ccc(C(=O)NC2(c3ccc(-c4cnc(C(F)(F)F)cc4C#N)cc3)CCC2)cc1` [Example 37, 4-cyano-N-(1-(4-(4-cyano-6-(trifluoromethyl)pyridin-3-yl)phenyl)cyclobutyl)benzamide] the figure was 120 nM.
For `Cc1cc(OC(F)F)nc(C)c1-c1ccc(C2(NC(=O)c3ccc(C#N)cc3)CCC2)cc1` [Example 38, 4-cyano-N-(1-(4-(6-(difluoromethoxy)-2,4-dimethylpyridin-3-yl)phenyl)cyclobutyl)benzamide] the value was 6.1 nM; for `Cc1cc(OC(F)F)ncc1-c1ccc(C2(NC(=O)c3ccc(C#N)cc3)CCC2)cc1` [Example 39, 4-cyano-N-(1-(4-(6-(difluoromethoxy)-4-methylpyridin-3-yl)phenyl)cyclobutyl)benzamide], 12.6 nM.
Take `CC(C)Oc1cc(C(F)F)c(-c2ccc(C3(NC(=O)c4ccc(C#N)cc4)CCC3)cc2)cn1` [Example 41, 4-Cyano-N-(1-(4-(4-(difluoromethyl)-6-isopropoxypyridin-3-yl)phenyl)cyclobutyl)benzamide]: the concentration for half-maximal inhibition (IC50) is 8.4 nM.
With `Cc1cc(C2CC2)ncc1-c1ccc(C2(NC(=O)c3ccc(C#N)cc3)CCC2)nc1` [Example 42, 4-Cyano-N-(1-(6′-cyclopropyl-4′-methyl-[3,3′-bipyridin]-6-yl)cyclobutyl)benzamide] the figure was 4.9 nM; with `Cc1cc(OC(F)F)ncc1-c1ccc(C2(NC(=O)C34CC(C#N)(C3)C4)CCC2)nc1` [Example 43, 3-Cyano-N-(1-(6′-(difluoromethoxy)-4′-methyl-[3,3′-bipyridin]-6-yl)cyclobutyl)bicyclo[1.1.1]-pentane-1-carboxamide], 524 nM; with `Cc1cc(C2CC2)ncc1-c1ccc(C2(NC(=O)C34CC(C#N)(C3)C4)CCC2)nc1` [Example 44, 3-Cyano-N-(1-(6′-cyclopropyl-4′-methyl-[3,3′-bipyridin]-6-yl)cyclobutyl)bicyclo[1.1.1]pentane-1-carboxamide], 308 nM.
On to `O=C(NC1(c2ccc(-c3cnc(C(F)(F)F)cc3CO)cc2)COC1)c1ccc(F)cc1` [Example 45, 4-Fluoro-N-(3-(4-(4-(hydroxymethyl)-6-(trifluoromethyl)pyridin-3-yl)phenyl)oxetan-3-yl)benzamide], for which the half-inhibitory concentration (IC50) amounted to 1.5 nM.
Regarding `O=C(NC1(c2ccc(-c3cnc(C(F)(F)F)cc3CO)cc2)CC1)c1ccc(Cl)cc1` [Example 46, 4-chloro-N-(1-(4-(4-(hydroxymethyl)-6-(trifluoromethyl)pyridin-3-yl)phenyl)cyclopropyl)benzamide], the IC50 is 2.1 nM.
Consider `CC(C)(O)c1cc(OC2CC2)ncc1-c1ccc(C2(NC(=O)c3ccc(F)cc3)CC2)cc1` [Example 47, N-(1-(4-(6-cyclopropoxy-4-(2-hydroxypropan-2-yl)pyridin-3-yl)phenyl)cyclopropyl)-4-fluorobenzamide], for which the IC50 is 2.1 nM.
Consider `O=C(NC1(c2ccc(-c3cnc(OC4CC4)cc3CO)cc2)CC1)c1ccc(F)cc1` [Example 48, N-(1-(4-(6-cyclopropoxy-4-(hydroxymethyl)pyridin-3-yl)phenyl)cyclopropyl)-4-fluorobenzamide], for which the IC50 was determined as 4.2 nM.
Turning to `CC(C)Oc1cc(CO)c(-c2ccc(C3(NC(=O)c4ccc(F)cc4)CC3)cc2)cn1` [Example 49, 4-fluoro-N-(1-(4-(4-(hydroxymethyl)-6-isopropoxypyridin-3-yl)phenyl)cyclopropyl)benzamide], the half-maximal inhibitory concentration (IC50) worked out at 2.7 nM.
With `C[C@H](O)c1cc(C(F)(F)F)ncc1-c1ccc(C2(NC(=O)c3ccc(F)cc3)CC2)cc1` [Example 50, (S)-4-fluoro-N-(1-(4-(4-(1-hydroxyethyl)-6-(trifluoromethyl)pyridin-3-yl)phenyl)cyclopropyl)benzamide] the figure was 1.5 nM; with `C[C@@H](O)c1cc(C(F)(F)F)ncc1-c1ccc(C2(NC(=O)c3ccc(F)cc3)CC2)cc1` [Example 51, (R)-4-fluoro-N-(1-(4-(4-(1-hydroxyethyl)-6-(trifluoromethyl)pyridin-3-yl)phenyl)cyclopropyl)benzamide, 2,2,2-trifluoroacetate salt], 2.3 nM; with `CC(C)(O)c1cc(C(F)(F)F)ncc1-c1ccc(C2(NC(=O)c3ccc(F)cc3)CCC2)cc1` [Example 52, 4-fluoro-N-(1-(4-(4-(2-hydroxypropan-2-yl)-6-(trifluoromethyl)pyridin-3-yl)phenyl)cyclobutyl)benzamide], 2.2 nM.
With `O=C(NC1(c2ccc(-c3cnc(C(F)(F)F)cc3CO)cc2)CCC1)c1ccc(F)cc1` [Example 53], the 50% inhibitory concentration (IC50) stood at 4.3 nM.
Turning to `CC(C)(O)c1cc(OC2CC2)ncc1-c1ccc(C2(NC(=O)c3ccc(F)cc3)CCC2)cc1` [Example 54, N-(1-(4-(6-cyclopropoxy-4-(2-hydroxypropan-2-yl)pyridin-3-yl)phenyl)cyclobutyl)-4-fluorobenzamide], the IC50 amounted to 2.2 nM.
